One compound from ChEMBL document CHEMBL1811860, “Synthesis and inhibitory activity of sialic acid derivatives targeted at viral sialate-O-acetylesterases” (Eur J Med Chem, 2011) can be followed below.

The nature of this assay: Inhibition of Influenza C virus C/JJ/50 9-SOAE expressed in Sf9 cells assessed as inhibition of hydrolysis of pNPA at 2 mM.

One may read the inhibition as the change of the read-out against control, counted positive when it falls. As to `C=CCO[C@]1(C(=O)O)C[C@H](O)[C@@H](NC(C)=O)[C@H]([C@H](O)[C@H](O)COC)O1`, the inhibition was 7.05%.
